Assay results published in paper PMC12621185, “Design, Syntheses, and Pharmacological Evaluations of Core Ring Expanded Fentanyl Analogues as Potential Counteracting Agents Against Fentanyl Induced Respiratory Depression” (2025).

The chains behind the UniProt entries cited, without tags or fusion partners. Where a name states a change or a piece, a line headed by the entry shows the natural chain unless it says otherwise.
UniProt Q9UNQ0: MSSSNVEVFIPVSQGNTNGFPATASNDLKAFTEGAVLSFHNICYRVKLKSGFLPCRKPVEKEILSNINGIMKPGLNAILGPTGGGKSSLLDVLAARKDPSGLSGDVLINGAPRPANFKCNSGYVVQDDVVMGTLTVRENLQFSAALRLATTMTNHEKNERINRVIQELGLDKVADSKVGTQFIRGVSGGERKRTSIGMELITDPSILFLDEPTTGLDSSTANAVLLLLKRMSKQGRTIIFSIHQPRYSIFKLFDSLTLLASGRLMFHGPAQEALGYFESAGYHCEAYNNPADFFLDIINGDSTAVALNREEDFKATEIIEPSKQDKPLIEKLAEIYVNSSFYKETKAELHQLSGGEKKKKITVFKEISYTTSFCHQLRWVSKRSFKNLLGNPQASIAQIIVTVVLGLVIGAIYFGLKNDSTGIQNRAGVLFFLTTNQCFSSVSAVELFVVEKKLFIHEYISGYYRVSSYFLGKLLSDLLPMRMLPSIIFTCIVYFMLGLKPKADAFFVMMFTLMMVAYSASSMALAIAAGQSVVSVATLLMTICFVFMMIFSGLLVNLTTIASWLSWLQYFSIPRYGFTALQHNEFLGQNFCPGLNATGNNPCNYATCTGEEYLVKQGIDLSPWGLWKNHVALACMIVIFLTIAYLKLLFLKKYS

Biological target: BCRP (Homo sapiens, UniProt Q9UNQ0)
Experiment: Bidirectional transport assay in Caco-2 cells, BCRP substrate assessment
Settings: no inhibitor

estrone sulfate
efflux ratio: 33.6
